Source: ChEMBL document CHEMBL1139469, “Synthesis and 3D QSAR of new pyrazolo[3,4-b]pyridines: potent and selective inhibitors of A1 adenosine receptors” (J Med Chem, 2005)

Tested on: Adenosine receptor A2a (Bos taurus)
Experiment: Displacement of [3HCGS21680 from adenosine A2A receptor in bovine cerebral cortical membranes at 10 uM

inhibition [%]	SMILES
36	CCOC(=O)c1cnc2c(cnn2CC(Cl)c2ccccc2)c1NCCc1ccccc1F (stereo unspecified)
21	CCOC(=O)c1cnc2c(cnn2CC(Cl)c2ccccc2)c1NCCc1cccc(Cl)c1 (stereo unspecified)
53	CCOC(=O)c1cnc2c(cnn2CC(Cl)c2ccccc2)c1NCCc1ccc(OC)cc1 (stereo unspecified)
29	COC(=O)c1cnc2c(cnn2CC(Cl)c2ccccc2)c1NCCc1ccc(OC)cc1 (stereo unspecified)
34	COc1ccc(CCNc2c(C(=O)OC(C)C)cnc3c2cnn3CC(Cl)c2ccccc2)cc1 (stereo unspecified)
41	CCOC(=O)c1cnc2c(cnn2CC(Cl)c2ccccc2)c1NCCc1ccc(C)cc1 (stereo unspecified)

Continued, compound first:

SMILES	inhibition [%]
CCCOC(=O)c1cnc2c(cnn2CC(Cl)c2ccccc2)c1NCc1ccccc1 (stereo unspecified)	0
CC(C)OC(=O)c1cnc2c(cnn2CC(Cl)c2ccccc2)c1NCc1ccccc1 (stereo unspecified)	0
COC(=O)c1cnc2c(cnn2CC(Cl)c2ccccc2)c1NC1CC1 (stereo unspecified)	52
CCOC(=O)c1cnc2c(cnn2CC(Cl)c2ccccc2)c1NCCc1ccccc1Cl (stereo unspecified)	0
CC(C)OC(=O)c1cnc2c(cnn2CC(Cl)c2ccccc2)c1N1CCOCC1 (stereo unspecified)	16
